Chains of the proteins cited; added tags and fusions are not shown. Residues count along the entry.
UniProt P51449, 269-508 limits assumed: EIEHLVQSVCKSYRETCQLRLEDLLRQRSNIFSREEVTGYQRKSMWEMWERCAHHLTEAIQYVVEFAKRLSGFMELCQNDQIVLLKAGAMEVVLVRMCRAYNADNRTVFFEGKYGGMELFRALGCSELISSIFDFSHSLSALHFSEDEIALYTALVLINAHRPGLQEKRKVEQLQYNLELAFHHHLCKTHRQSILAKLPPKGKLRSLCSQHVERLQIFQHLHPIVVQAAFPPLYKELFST

In patent US20220227782A1, “COMPOUND FOR INHIBITING RORyt ACTIVITY, PREPARATION METHOD THEREFOR AND APPLICATION THEREOF” (CELLREGEN (BEIJING) LIFE SCIENCE AND TECHNOLOGY CO., LTD., priority 2019, published 2022):

Assays:
RORγt-LBD+-Jurkat cells = experiment: CC50 test, median cytotoxic concentration against RORγt-LBD+-Jurkat cells; assay type: cell-based
Description: EC50 and CC50 tests: EC50 (half maximal (50%) effective concentration) is a half maximal effective concentration against RORγt-LBD+-Jurkat cells, and CC50 (median (50%) cytotoxic concentration) is a median cytotoxic concentration against RORγt-LBD+-Jurkat cells.

RORγt = RORγt (Homo sapiens, UniProt P51449); experiment: EC50 test, inhibition of RORγt transcription activity (luciferase activity reporter system) in RORγt-LBD+-Jurkat cells; settings: for EC50: half maximal effective concentration against RORγt-LBD+-Jurkat cells
[1] = tested on: RORγt, IL17A, IL-17F mRNA; experiment: mRNA expression of RORγt, IL17A and IL-17F in Th17 cell differentiation in vitro; settings: FIG. 22, 1.56, 3.12 and 6.25 μM compound vs solvent group
IL-17A = experiment: Intracellular protein expression of IL-17A (flow cytometer), Th17 cells; settings: FIG. 21; 1.56, 3.12 and 6.25 μM compound vs solvent group
Description: The compound for inhibiting RORγt activity as described above may be used in preparation of a therapeutic formulation for the treatment of autoimmune diseases, in preparation of a formulation that inhibits formation of a Th17 cell, in preparation of a formulation that inhibits the RORγt transcription activity, or in preparation of a formulation that inhibits transcription and expression of IL17A gene and/or IL17F gene. The compounds having the structural formula (A) has a good inhibitory effect on RORγt activity. […] Therefore, the compound may be used to produce a formulation of corresponding activity inhibitor, and provide a leading structure for the development of therapeutic drugs for autoimmune diseases.
It can be seen from FIG. 21 that Compounds 6, 10, 22, 28, and 31 have significant inhibitory effects. In the figure, the results of solvent group, 1.56 μM compound group, 3.12 μM compound group, and 6.25 μM compound group are shown from left to right.

Row | EC50 (RORγt) [µM] | inhibiting RORγt transcription activity (in words) (RORγt; FIG. 20) | Compound | CC50 (RORγt-LBD+-Jurkat cells) [µM] | inhibition of mRNA expression of RORγt, IL17A and IL-17F (in words) [1] | inhibition of intracellular protein expression of IL-17A (in words) (IL-17A)
1 | 6.15 | – | CCOC(=O)C1CCc2c(sc3nc(C)nc(Sc4nnnn4-c4ccccc4)c23)C1 (stereo not drawn) | > 10 | – | –
2 | 4.58 | – | Cc1nc(Sc2nnnn2-c2ccccc2)c2c3c(sc2n1)CC(C)(C)CC3 | 7.7 | significant inhibitory effects | significant inhibitory effects
3 | 0.14 | significant effect | CCOC(=O)Cc1nc(Sc2nnnn2-c2ccccc2)c2c3c(sc2n1)CCCC3 | 3.35 | significant inhibitory effects | significant inhibitory effects
4 | > 10 | – | Cc1ccc(NC(=O)Cc2nc(Sc3nnnn3-c3ccccc3)c3c4c(sc3n2)CCCC4)nc1 | 4.01 | – | –
5 | > 10 | – | O=C(O)Cc1nc(Sc2nnnn2-c2ccccc2)c2c3c(sc2n1)CCCC3 | > 10 | – | –
